Target: Sucrase-isomaltase, intestinal (Rattus norvegicus, UniProt P23739)
Experiment: Inhibition of sucrase in rat small intestine using sucrose as substrate after 40 mins by microplate reader analysis

Amino acid sequences for entries named in this document (tags omitted). Residues count along the entry.
UniProt P23739, 1014-1841 limits assumed: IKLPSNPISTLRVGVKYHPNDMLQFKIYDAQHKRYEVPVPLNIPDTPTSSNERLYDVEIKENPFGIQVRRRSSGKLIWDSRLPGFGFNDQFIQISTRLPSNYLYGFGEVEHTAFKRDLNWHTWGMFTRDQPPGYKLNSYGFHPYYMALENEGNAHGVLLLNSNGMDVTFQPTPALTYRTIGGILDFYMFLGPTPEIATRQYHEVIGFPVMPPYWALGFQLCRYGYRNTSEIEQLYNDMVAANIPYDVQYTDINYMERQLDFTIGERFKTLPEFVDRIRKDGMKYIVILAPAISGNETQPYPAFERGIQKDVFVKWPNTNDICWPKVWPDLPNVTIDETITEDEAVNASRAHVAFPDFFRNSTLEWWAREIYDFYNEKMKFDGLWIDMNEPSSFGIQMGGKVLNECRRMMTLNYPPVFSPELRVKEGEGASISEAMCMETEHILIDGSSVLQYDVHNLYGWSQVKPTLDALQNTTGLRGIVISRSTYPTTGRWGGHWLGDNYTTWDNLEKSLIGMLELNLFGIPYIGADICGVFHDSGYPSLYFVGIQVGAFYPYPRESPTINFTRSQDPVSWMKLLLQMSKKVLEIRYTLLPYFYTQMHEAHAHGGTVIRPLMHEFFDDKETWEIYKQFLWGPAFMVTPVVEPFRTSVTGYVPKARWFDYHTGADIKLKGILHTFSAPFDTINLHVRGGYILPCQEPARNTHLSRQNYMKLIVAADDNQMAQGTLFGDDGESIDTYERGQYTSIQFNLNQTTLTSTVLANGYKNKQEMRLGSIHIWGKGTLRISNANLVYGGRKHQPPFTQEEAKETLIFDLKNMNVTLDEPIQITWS
UniProt P23739, 1-1013 limits assumed: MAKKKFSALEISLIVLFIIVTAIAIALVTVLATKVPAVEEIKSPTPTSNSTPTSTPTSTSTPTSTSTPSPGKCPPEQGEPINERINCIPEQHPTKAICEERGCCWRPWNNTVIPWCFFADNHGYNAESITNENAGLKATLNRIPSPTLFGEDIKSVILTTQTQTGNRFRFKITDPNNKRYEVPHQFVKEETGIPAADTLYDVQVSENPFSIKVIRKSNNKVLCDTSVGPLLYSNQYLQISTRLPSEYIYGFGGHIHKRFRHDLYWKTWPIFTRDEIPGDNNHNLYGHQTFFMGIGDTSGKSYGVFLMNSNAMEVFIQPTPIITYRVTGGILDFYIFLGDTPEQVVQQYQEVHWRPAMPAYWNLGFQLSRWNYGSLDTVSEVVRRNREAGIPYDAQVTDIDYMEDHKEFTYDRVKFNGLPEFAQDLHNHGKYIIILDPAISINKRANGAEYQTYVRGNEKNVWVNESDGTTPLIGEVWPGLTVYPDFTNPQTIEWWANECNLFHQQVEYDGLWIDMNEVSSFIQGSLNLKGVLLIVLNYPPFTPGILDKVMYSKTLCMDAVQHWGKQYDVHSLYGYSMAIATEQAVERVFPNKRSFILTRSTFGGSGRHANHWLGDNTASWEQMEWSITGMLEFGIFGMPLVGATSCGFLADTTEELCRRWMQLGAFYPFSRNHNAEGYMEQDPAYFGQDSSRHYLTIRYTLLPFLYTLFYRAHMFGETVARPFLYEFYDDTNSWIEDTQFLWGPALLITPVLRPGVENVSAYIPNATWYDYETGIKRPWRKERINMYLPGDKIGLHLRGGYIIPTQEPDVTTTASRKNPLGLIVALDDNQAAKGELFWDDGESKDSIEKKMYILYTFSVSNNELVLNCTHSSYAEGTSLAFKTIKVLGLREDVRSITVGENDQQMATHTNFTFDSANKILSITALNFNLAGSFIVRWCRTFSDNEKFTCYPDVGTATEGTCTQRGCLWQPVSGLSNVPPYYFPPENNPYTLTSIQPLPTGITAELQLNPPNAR

IC50: 2300 nM
SMILES: C[C@H]1O[C@H](O[C@H]2[C@H](O)[C@@H](O)[C@@H](O[C@H]3[C@H](O)[C@@H](O)C(O)O[C@@H]3CO)O[C@@H]2CO)[C@H](O)[C@@H](O)[C@@H]1N[C@H]1C=C(CO)[C@@H](O)[C@H](O)[C@H]1O (stereo partly specified) [ACARBOSE]

Reference: ChEMBL document CHEMBL3217649, “Synthesis of new N-substituted aminoquercitols from naturally available (+)-proto-quercitol and their -glucosidase inhibitory activity” (Medchemcomm, 2012)
